Assay results as given in US10934303B2, “Aryl ethene derivative and pharmaceutical composition containing same as active ingredient” (priority 2016, dated 2021).
pIC50: −log10 of the molar value.

The chains behind the UniProt entries cited, without tags or fusion partners. Where a name states a change or a piece, a line headed by the entry shows the natural chain unless it says otherwise. Residues count along the entry.
UniProt P03372, whole entry, looked up: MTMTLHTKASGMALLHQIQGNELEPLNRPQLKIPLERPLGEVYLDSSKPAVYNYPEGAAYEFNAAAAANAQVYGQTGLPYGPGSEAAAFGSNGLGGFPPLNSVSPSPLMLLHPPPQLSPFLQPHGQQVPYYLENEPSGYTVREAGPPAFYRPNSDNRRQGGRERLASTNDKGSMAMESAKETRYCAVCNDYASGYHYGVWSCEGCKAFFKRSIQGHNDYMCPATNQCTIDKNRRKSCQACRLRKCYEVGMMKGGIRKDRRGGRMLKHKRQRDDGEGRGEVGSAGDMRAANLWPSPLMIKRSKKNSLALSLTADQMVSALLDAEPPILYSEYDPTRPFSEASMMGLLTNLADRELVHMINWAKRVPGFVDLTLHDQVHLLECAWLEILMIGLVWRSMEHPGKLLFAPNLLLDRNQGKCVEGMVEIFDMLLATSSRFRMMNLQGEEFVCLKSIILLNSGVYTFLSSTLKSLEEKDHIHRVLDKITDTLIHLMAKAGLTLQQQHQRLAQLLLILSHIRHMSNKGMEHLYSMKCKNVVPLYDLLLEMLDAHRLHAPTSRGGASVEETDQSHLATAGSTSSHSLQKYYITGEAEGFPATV
UniProt O95718: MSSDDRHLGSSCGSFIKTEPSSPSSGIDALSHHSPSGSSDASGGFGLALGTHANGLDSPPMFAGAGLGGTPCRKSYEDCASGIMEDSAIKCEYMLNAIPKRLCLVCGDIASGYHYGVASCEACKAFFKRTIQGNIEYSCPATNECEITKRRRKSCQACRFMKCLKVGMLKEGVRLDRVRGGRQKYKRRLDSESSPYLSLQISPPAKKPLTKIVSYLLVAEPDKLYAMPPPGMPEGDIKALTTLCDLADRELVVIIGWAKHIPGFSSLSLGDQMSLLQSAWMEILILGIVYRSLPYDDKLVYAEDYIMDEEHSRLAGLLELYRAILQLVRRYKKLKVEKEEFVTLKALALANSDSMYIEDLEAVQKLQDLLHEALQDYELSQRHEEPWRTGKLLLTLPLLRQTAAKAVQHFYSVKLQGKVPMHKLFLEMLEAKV
UniProt P11474, 193-421: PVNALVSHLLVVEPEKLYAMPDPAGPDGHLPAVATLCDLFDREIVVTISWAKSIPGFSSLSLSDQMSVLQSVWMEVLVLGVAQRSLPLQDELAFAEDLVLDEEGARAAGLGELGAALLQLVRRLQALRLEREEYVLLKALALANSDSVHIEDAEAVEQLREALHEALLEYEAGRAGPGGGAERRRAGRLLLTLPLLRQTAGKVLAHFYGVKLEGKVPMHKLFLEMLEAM

Tests used:
[1] = molecular target: GST-bound ER alpha ligand-binding domain (LBD) (Homo sapiens (Human), UniProt P03372); assay: biochemical
ERRβ = ERRβ (Homo sapiens, UniProt O95718); details: TR-FRET, PGC1a coactivator; read-out: Binding Assay, IC50 ERRβ
GST-bound ERR alpha LBD = GST-bound ERR alpha LBD (Homo sapiens (Human), UniProt P11474); assay: biochemical; format: binding

Compound	pIC50 [1]	pIC50 (ERRβ)	pIC50 (GST-bound ERR alpha LBD)
CN1CCC[C@H]1COc1ccc(/C(=C(/CCCO)c2ccccc2)c2ccc(Br)cc2)cc1 [Compound 13b]	< 5.00	5.41	
CC(C)N1CCN(c2ccc(/C(=C(/CCCO)c3ccccc3)c3ccc(NS(C)(=O)=O)cc3)cc2)CC1 [Compound 27a, (E)-N-(4-(5-hydroxy-1-(4-(4-isopropylpiperazin-1-yl)phenyl)-2-phenylpent-1-en-1-yl)phenyl)methanesulfonamide]	6.38	7.15	5.36
CN(C)CCOc1ccc(/C(=C(/CCCO)c2ccccc2)c2ccc(O)cc2)cc1 [GSK5182, (Z)-4-(1-(4-(2-(dimethylamino)ethoxy)phenyl)-5-hydroxy-2-phenylpent-1-en-1-yl)phenol, reference compound]		< 5.00	
